In assay [1] the test system is M4 KO mice. Briefly: Amphetamine-induced hyperlocomotion in M4 KO mice. In kind it is in vivo, mouse. The note with it: SC, lowest significant dose (also 3 mg/kg).
For assay [2], the system named is wild-type mice. Nature of the assay: Amphetamine-induced hyperlocomotion in wild-type mice. The note with it: SC, 1–3 mg/kg tested. Format: in vivo, mouse.
Assay [3] concerns the target human M4 (Homo sapiens, UniProt P08173). Nature of the assay: cell-based.
Assay [4] addresses rat M4 receptor (Rattus norvegicus, UniProt P08485). Briefly: cell-based.

Chains of the proteins cited; added tags and fusions are not shown.
UniProt P08173, whole entry: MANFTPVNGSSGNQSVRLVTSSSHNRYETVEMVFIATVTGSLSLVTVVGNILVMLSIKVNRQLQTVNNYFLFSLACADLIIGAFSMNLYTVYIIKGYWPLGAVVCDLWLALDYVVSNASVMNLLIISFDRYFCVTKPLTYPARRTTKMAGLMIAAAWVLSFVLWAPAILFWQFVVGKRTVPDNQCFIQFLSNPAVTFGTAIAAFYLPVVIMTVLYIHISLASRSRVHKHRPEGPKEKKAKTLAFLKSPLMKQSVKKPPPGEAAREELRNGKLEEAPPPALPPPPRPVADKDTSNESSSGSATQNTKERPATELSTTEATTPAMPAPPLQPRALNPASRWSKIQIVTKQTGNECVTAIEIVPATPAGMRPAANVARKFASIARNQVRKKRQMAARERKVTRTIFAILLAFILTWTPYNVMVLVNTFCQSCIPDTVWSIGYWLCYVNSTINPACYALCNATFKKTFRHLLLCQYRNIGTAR
UniProt P08485, whole entry: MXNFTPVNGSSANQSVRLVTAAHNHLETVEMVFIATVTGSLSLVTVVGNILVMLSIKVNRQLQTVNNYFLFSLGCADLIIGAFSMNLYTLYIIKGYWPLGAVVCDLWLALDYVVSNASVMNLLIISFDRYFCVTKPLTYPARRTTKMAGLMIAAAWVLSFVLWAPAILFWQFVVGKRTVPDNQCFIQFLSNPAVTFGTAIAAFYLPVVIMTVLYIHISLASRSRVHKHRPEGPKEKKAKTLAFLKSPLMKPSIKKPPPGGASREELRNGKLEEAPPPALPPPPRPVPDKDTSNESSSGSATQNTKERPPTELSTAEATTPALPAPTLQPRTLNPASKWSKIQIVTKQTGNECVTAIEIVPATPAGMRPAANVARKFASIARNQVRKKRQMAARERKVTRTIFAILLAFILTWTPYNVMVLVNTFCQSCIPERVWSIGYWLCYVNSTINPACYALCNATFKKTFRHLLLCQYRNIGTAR

Each structure is given as a SMILES string.

Consider two molecules from publication PMC4324418 (ACS Chemical Neuroscience, 2014).

Regarding `C[C@H](N)Cc1ccccc1` [Amphetamine, D-Amphetamine hemisulfate, reference compound], the “dose with significant effect on locomotor activity” value was determined as 1.8 mg/kg in assay [1] and 3 mg/kg in assay [2].
`Cc1nnc2sc(C(=O)NCc3ccc(S(=O)(=O)C(F)(F)F)cc3)c(N)c2c1C` [VU0467154, 5-amino-3,4-dimethyl-N-(4-((trifluoromethyl)sulfonyl)benzyl)thieno[2,3-c]pyridazine-6-carboxamide]: the EC50 – broadly, the concentration that produces a half-maximal response – in assay [3] was 627 nM; in assay [4] it was 17.7 nM.
